Measured values published in patent US20070282095A1.

Key:
[1] = molecular target: blood coagulation factor 8 (UniProt P00451); assay: IAsys biosensor; derivative immobilized; 100 nM Fbgn and 100 nM FVIII; reference 205A43A thrombin
soluble thrombomodulin [2] = molecular target: soluble thrombomodulin (UniProt P07204); assay: IAsys biosensor; derivative immobilized (about 1,800 arc); 16.7 nM then 50 nM TM; reference 205A43A thrombin (FIG. 19)
[3] = molecular target: blood coagulation factor 8 (UniProt P00451); assay: IAsys biosensor, FAST FIT program; derivative immobilized
fibrinogen [4] = molecular target: fibrinogen (UniProt P02671); assay: IAsys biosensor; about 2,000 arc of derivative immobilized; 500 nM Fbgn
[5] = molecular target: blood coagulation factor 8 (UniProt P00451); assay: IAsys biosensor; about 2,000 arc of derivative immobilized; 500 nM FVIII
soluble thrombomodulin [6] = molecular target: soluble thrombomodulin (UniProt P07204); assay: IAsys biosensor; about 2,000 arc of derivative immobilized; 50 nM soluble TM
[7] = molecular target: blood coagulation factor 8 (UniProt P00451); assay: IAsys biosensor; derivative immobilized on CM dextran cuvette; 100 nM FVIII added; reference AHT cuvette
fibrinogen [8] = molecular target: fibrinogen (UniProt P02671); assay: IAsys biosensor; about 4,100 arc of derivative immobilized; 500 nM Fbgn
[9] = molecular target: blood coagulation factor 8 (UniProt P00451); assay: IAsys biosensor; about 4,100 arc of derivative immobilized; 500 nM FVIII
soluble thrombomodulin [10] = molecular target: soluble thrombomodulin (UniProt P07204); assay: IAsys biosensor; about 4,100 arc of derivative immobilized; 50 nM soluble TM
[11] = molecular target: thrombin receptor extracellular domain peptide; assay: IAsys biosensor; derivative immobilized on CM dextran cuvette, thrombin receptor extracellular domain peptide (SEQ ID NO:4) 10-1,000 nM; FAST fit
[12] = molecular target: blood coagulation factor 8 (UniProt P00451); assay: IAsys biosensor; derivative immobilized; 100 nM Fbgn and 100 nM FVIII; reference AHT cuvette
[13] = molecular target: hirudin C-terminal peptide; assay: hirudin C-terminal peptide-immobilized gel column (method E); Western blot of flow-through and eluted fractions
[14] = molecular target: thrombin receptor extracellular domain peptide; assay: IAsys biosensor; AHT immobilized, thrombin receptor extracellular domain peptide (SEQ ID NO:4) as analyte (filing cites method D)

65A205A43A thrombin (lysine 65 to alanine, serine 205 to alanine, histidine 43 to alanine in B chain) (from UniProt P00734 315-363; P00734 364-622) (enzyme)
ratio between FVIII-binding ability and Fbgn-binding ability, relative to 205A43A thrombin [1]: 2.8 folds
TM-binding ability relative to 205A43A thrombin (per immobilized protein) (soluble thrombomodulin [2]): 30%

77E203A205G thrombin (lysine 77 to glutamic acid, glycine 203 to alanine, serine 205 to glycine in B chain) (from UniProt P00734 315-363; P00734 364-622) (enzyme)
Kd [3]: 22.5 nM
amount adsorbed after three minutes (fibrinogen [4]): 80 arc sec
amount adsorbed after three minutes [5]: 300 arc sec
amount adsorbed after three minutes (soluble thrombomodulin [6]): 20 arc sec

203A205A thrombin (glycine 203 to alanine, serine 205 to alanine in B chain) (from UniProt P00734 315-363; P00734 364-622) (enzyme)
FVIII signal per immobilized protein amount relative to AHT [7]: 5%

203A205G thrombin (glycine at position 203 in B chain substituted by alanine, serine at position 205 substituted by glycine) (from UniProt P00734 315-363; P00734 364-622) (enzyme)
Kd [3]: 5.07 nM
amount adsorbed after three minutes (fibrinogen [8]): 300 arc sec
amount adsorbed after three minutes [9]: 300 arc sec
amount adsorbed after three minutes (soluble thrombomodulin [10]): 100 arc sec
FVIII binding per immobilized amount relative to AHT [7]: 11%
Kd [11]: 3200 nM

205A43A thrombin (serine 205 to alanine, histidine 43 to alanine in B chain) (from UniProt P00734 315-363; P00734 364-622) (enzyme)
ratio between the binding abilities to FVIII and Fbgn, relative to AHT [12]: 1.4 folds

205A43A thrombin (serine 205 to alanine, histidine 43 to alanine in B chain) (from UniProt P00734 315-363; P00734 364-622) (enzyme; other documents disagree on this pair)
percent bound to hirudin C-terminal peptide gel [13]: > 95%

205A43S thrombin (serine 205 to alanine, histidine 43 to serine in B chain) (from UniProt P00734 315-363; P00734 364-622) (enzyme)
binding ratio between FVIII and Fbgn, relative to AhT [12]: 1.2 folds

205A thrombin (serine at position 205 in B chain substituted by alanine) (from UniProt P00734 315-363; P00734 364-622) (enzyme)
FVIII binding signal relative to AHT [7]: 40%

anhydrothrombin (from UniProt P00734 315-363; P00734 364-622) (enzyme)
Kd [14]: 1200 nM
